{
  "sequences": {"note": "Sequences of proteins named here, by UniProt entry; tags and fusion partners are left off. A change or cut given only in a name is not applied to a line headed by its entry.", "UniProt P52333": "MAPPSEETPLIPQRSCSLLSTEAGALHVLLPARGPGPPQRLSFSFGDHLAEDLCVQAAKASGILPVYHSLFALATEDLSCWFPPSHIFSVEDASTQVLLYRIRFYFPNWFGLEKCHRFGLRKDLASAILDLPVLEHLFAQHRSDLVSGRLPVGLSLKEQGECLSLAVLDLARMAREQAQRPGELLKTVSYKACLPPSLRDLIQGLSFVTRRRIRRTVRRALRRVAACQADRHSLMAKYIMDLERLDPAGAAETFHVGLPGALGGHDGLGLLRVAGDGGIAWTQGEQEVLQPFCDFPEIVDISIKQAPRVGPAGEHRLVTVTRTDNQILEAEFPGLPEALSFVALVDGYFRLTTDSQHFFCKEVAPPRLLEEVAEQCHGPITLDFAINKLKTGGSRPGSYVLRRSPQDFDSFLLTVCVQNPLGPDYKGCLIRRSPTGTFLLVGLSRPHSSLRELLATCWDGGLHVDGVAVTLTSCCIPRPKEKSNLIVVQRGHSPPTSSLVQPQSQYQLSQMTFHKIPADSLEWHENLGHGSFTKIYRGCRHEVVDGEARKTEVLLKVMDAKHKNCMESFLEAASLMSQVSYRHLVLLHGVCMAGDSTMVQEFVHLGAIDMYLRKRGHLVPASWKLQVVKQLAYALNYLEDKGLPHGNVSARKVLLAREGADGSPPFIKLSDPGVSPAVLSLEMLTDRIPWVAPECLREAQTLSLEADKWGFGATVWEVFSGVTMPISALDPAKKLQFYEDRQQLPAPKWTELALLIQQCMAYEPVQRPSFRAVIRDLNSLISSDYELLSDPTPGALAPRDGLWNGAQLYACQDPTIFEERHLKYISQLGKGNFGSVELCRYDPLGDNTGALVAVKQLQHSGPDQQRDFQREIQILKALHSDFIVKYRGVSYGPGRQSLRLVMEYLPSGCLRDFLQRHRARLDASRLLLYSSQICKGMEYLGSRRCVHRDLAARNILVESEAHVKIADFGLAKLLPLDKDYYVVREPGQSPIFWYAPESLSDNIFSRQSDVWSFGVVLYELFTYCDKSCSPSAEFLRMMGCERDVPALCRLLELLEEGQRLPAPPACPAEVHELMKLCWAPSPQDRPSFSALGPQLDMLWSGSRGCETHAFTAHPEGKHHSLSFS"},
  "source": "patent US11780852B2",
  "about": "“Methods for treating Crohn's disease using 3-((1R,3s,5S)-3-((7-((5-methyl-1H-pyrazol-3-yl)amino)-1,6-naphthyridin-5-yl)amino)-8-azabicyclo[3.2.1]octan-8-yl)propanenitrile” (priority 2015, dated 2023)",
  "target": "JAK3 (Homo sapiens (Human), UniProt P52333)",
  "assay_type": "biochemical",
  "method": "Assay 1: Biochemical JAK and Off-Target Kinase Assays\nA panel of four LanthaScreen JAK biochemical assays (JAK1, 2, 3 and Tyk2) were carried in a common kinase reaction buffer (50 mM HEPES, pH 7.5, 0.01% Brij-35, 10 mM MgCl2, and 1 mM EGTA). Recombinant GST-tagged JAK enzymes and a GFP-tagged STAT1 peptide substrate were obtained from Life Technologies.\nSerially diluted compounds were pre-incubated with each of the four JAK enzymes and the substrate in white 384-well microplates (Corning) at ambient temperature for 1 h. ATP was subsequently added to initiate the kinase reactions in 10 μL total volume, with 1% DMSO. […] Kinase reactions were allowed to proceed for 1 hour at ambient temperature before a 10 μL preparation of EDTA (10 mM final concentration) and Tb-anti-pSTAT1 (pTyr701) antibody (Life Technologies, 2 nM final concentration) in TR-FRET dilution buffer (Life Technologies) was added. The plates were allowed to incubate at ambient temperature for 1 h before being read on the EnVision reader (Perkin Elmer).\nResults were expressed as pIC50 (negative logarithm of IC50) and subsequently converted to pKi (negative logarithm of dissociation constant, Ki) using the Cheng-Prusoff equation.",
  "data": [
    {"compound": "Cc1cc(Nc2cc3ncccc3c(N[C@@H]3C[C@H]4CC[C@@H](C3)N4C3CCOC3=O)n2)n[nH]1", "note": "(stereo partly shown) [Example 1-26]", "values": [
      {"measurement": "JAK 3 (pKi)", "result": "C (C represents a pKi value between 7 and 9 (Ki between 100 nM and 1 nM))"}
    ]}
  ]
}
